Apparent affinities of Ab-14 variants for a coronavirus HR2 peptide

Reference: Li et al. 2023, doi:10.1038/s41467-023-39022-2. File: FLAb, binding data.

Target peptide (SARS-CoV-2 spike, HR2 region): PDVDLGDISGINAS

Parent: Ab-14, a human scFv built as VH, three GGGGS repeats, VL. Only the CDRs of the heavy chain vary.
VH: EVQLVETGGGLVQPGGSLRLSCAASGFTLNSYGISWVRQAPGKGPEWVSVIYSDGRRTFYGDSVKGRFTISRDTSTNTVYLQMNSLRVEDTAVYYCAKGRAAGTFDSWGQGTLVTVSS
VL: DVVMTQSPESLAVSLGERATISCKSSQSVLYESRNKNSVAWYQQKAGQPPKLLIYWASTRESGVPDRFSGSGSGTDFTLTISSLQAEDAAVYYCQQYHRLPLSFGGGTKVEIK

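Phage display of a naive human antibody library on the peptide gave the parent. This is the validation round: designs drawn from the data on random variants, tested in the same kind of assay. Several design methods are mixed in this list. Affinity was read by AlphaSeq, a pooled yeast mating assay with surface-displayed partners. Mating (16 h, 30 °C) was followed by selection of diploids and sequencing of their barcodes. Scores were corrected for input abundance and mapped to Kd with protein pairs of known affinity run in the same pool. Mating was done six times.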

Variants are written as CDR1, CDR2 and CDR3 of the heavy chain (limits as in the source). Parent: GFTLNSYGIS, VIYSDGRRTFYGDSVK, GRAAGTFDS.
Each Kd is an estimate from the mating assay, the geometric mean of the replicates in which the pair was seen; lower is stronger.
"no signal" marks a missing value. The strain was present, yet no cells mated with the target were sequenced in any replicate, which points to weak or no binding.

| # | CDR-H1 | CDR-H2 | CDR-H3 | apparent Kd | detected |
|---|---|---|---|---|---|
| 1 | GFDIQEYGIS | VIYADGQRKAYHQSVK | GAGDITAVV | no signal | 0/6 |
| 2 | GFDLEDYGIS | VIYADGMRTAYADSVK | GENAGTFDV | 470 pM | 6/6 |
| 3 | GFTLNFYGIS | VIYSDGRRTFYDDSVK | GQLAGTFDS | 1.6 nM | 1/6 |
| 4 | GFSLNSYGIS | VIYSDGRRTFYADQVK | GQTAGTFDS | 1.5 nM | 6/6 |
| 5 | GFTLNSYGIS | VIYSDGERTSYHDSVK | GTAAGTFDS | no signal | 0/6 |
| 6 | GFTLNSYGIS | VIYSDGRRTFYPDSVK | GRAGGTFDE | no signal | 0/6 |
| 7 | GFDLDEYGIS | VIYADGVRTAYIDSVK | GNQAGTFDV | 260 pM | 6/6 |
| 8 | GFDIEEYGIS | VIYADGSRTEYSDSVK | SGYHFNMDL | no signal | 0/6 |
| 9 | GFTLNSYGIS | VIYSDGRRTMYGDSVK | GRAAGTFDS | 9.6 nM | 5/6 |
| 10 | RFTLNSYSIS | VIYSDGRRTFYGDSVD | CRAAGTFDS | no signal | 0/6 |
| 11 | GFDLNEYGIS | VIYADGMRTAYANDVK | GEVAGTFDI | 190 pM | 6/6 |
| 12 | GFDLNTYGIS | VIYSDGRRTFYDDSVK | GQAAGTFDS | 450 pM | 6/6 |
| 13 | GFLLNDYGIS | VIYSDGRRTFYKDSVK | GKAAGTFDS | 14 nM | 6/6 |
| 14 | GFSLNSYGIS | VIYSDGRRTFYKDSVK | GTAAGTFDS | 1.5 nM | 5/6 |
| 15 | GFPLNSYGIS | VIYSDGRRTFYGDEVK | GRFAGTFDY | 5.7 nM | 1/6 |
| 16 | GFDLQEYGIS | VIYADGVRYAYQNSFK | GQIAGTINS | no signal | 0/6 |
| 17 | GFDLDEYGIS | VIYADGMRTAYSDDVK | GNNAGTFDV | 3.8 nM | 6/6 |
| 18 | GFSLDEFGIS | VIYADGMRSAYSQNVK | GQHVGFTVS | no signal | 0/6 |
| 19 | GFGINEYGIS | VIYADGMRSAYANSVK | GAHAGGIVW | 54 nM | 1/6 |
| 20 | GFDLNEYGIS | VIYADGMRTAYANDVK | GNVAGTFDL | 260 pM | 6/6 |
| 21 | GFDLNSYGIS | VIYSDGRRTFYADRVK | GEAAGTFDS | 4.3 nM | 6/6 |
| 22 | GFTLNSYGIS | VIYADGRRTFYIDSVK | GRAAGTFDL | 5.6 nM | 6/6 |
| 23 | GMTLNSYGIS | VIYADGRRTFYGDSVK | GRAAGTFKS | no signal | 0/6 |
| 24 | GFDLDEYGIS | VIYADGKRTAYADKVK | GENAGTFDV | no signal | 0/6 |
| 25 | SFTLNSYGIS | VIYADGRRTFYGDSVK | GKAAGTFDS | 26 nM | 6/6 |
| 26 | GFWLNEYGIS | VIYSDGRRTQYIDSVK | GRAAGTFDS | 8.7 nM | 6/6 |
| 27 | GFTLNSYGIS | VIYSDGMRTAYGDSVK | GRAAGTFDS | 25 nM | 4/6 |
| 28 | GFSLNEYGIS | VIYSDGRRTFYHDSVK | GRAAGFFDS | 7.7 nM | 6/6 |
| 29 | GFTLNDFGIS | VIYSDGRRTFYGDFVK | GRAALTFIS | 8.5 nM | 6/6 |
| 30 | GFDLNEYGIS | VIYADGRRTAYSDSVK | GEAAGTFDT | 580 pM | 6/6 |
| 31 | GFTLNSYGIS | VIYSDGRRTFYRDNVK | GQEAGTFDT | 4.7 nM | 6/6 |
| 32 | GFPLNEYGIS | VIYADGRRTFYGDSVK | GMAAGTFDS | 1.3 nM | 6/6 |
| 33 | GFDLEDYGIS | VIYADGRRTAYIDSVK | GEAAGTFDQ | 380 pM | 6/6 |
| 34 | GFELNNYGIS | VIYSDGRRTFYGDQVK | GRTAGTFDS | 1.6 nM | 6/6 |
| 35 | MFDLNSYGIS | VIYSDGRRTFYGDSVK | GWTAGTFDS | no signal | 0/6 |
| 36 | GSDLEEYGIS | VIYADGMRMVYADSVK | GHYGLGKVM | no signal | 0/6 |
| 37 | GFDLNEYGIS | VIYADGRRTFYTDSVK | GTAAGTFDV | 220 pM | 6/6 |
| 38 | GFDLMEYGIS | VIYADGKRTGYTDKVK | GWFGDTGKT | no signal | 0/6 |
| 39 | GFTLNSYGIS | VIYSDGKRTFYIDSVK | GRVAGTFWS | no signal | 0/6 |
| 40 | GFNLDEYGIS | VIYADGMRAAYQNSVK | GFTPFVVAI | no signal | 0/6 |
| 41 | LFDLNSYGIS | VIYSDGRRTAYGDSVK | GRTAGTFDS | 9.5 nM | 6/6 |
| 42 | GFTLNSYGIS | VIYADGLRTFYGDSVK | GREAGTFDS | 6.1 nM | 2/6 |
| 43 | KFTLNSYGIS | VIYSDGRRTFYADSVK | GKTAGTFDS | 4.1 nM | 6/6 |
| 44 | GFNLNDYGIS | VIYADGHRRYYVDNVK | GHLGGTFFM | 86 nM | 1/6 |
| 45 | GFNLNEYGIS | VIYADGRRKAYADSVK | GNTAGTFDS | 300 pM | 6/6 |
| 46 | GFNLDEYGIS | VIYADGRRTFYADSVK | GENAGTFDM | 140 pM | 6/6 |
| 47 | GFQLDEYGIS | VIYADGMRASYINSAK | GNYGIVFTV | no signal | 0/6 |
| 48 | GFLLDEYGIS | VIYADGQRTAYTDDVK | GYVGGIGGI | 33 nM | 1/6 |
| 49 | GFTLNEYGIS | VIYSDGRRTFYADSVK | GHAAGTFDN | 6.5 nM | 5/6 |
| 50 | GFDIEEYGIS | VIYADGVRTMYADDVK | GNSKNYSLS | no signal | 0/6 |
| 51 | GFDLNSYGIS | VIYSDGRRTFYVDSVK | GRRAGTFES | no signal | 0/6 |
| 52 | GFTLVDYIIS | VIYSDGRRTFYGDSVK | GRAALTFIS | no signal | 0/6 |
| 53 | GFNLNSYGIS | VIYSDGRRNFYGDSVK | GRAAGVGDS | no signal | 0/6 |
| 54 | GFNLNEFGIS | VIYADGKRQAYVPNVK | GHLGGHFDM | no signal | 0/6 |
| 55 | GFDLNNYGIS | VIYSDGRRTFYGDSVK | GKAAGTFDS | 2.3 nM | 6/6 |
| 56 | GFTLNSYGCS | VIYSDSRRTFYSDSVK | ERAGGTFDS | no signal | 0/6 |
| 57 | GFDLNEYGIS | VIYADGARTAYADSVK | GENAGTFDV | 470 pM | 6/6 |
| 58 | GFDLNSYGIS | VIYSDGHRTFYVDSVK | GRTAGTFDS | 5.3 nM | 6/6 |
| 59 | GFTLNSFGIS | VIYSDGRRTFYGDSVK | GRVEGAFDS | no signal | 0/6 |
| 60 | GFTLNSYGIS | VIYSDQRRTFYSDSVK | GRWGGTFFS | no signal | 0/6 |
| 61 | GFDLNEYGIS | VIYADGRRTAYADSVK | GEAAGTFDA | 50 nM | 4/6 |
| 62 | GFTLNDYGIS | VIYSDGRRTFYSDSVK | GREAGTFDS | 500 pM | 6/6 |
| 63 | GFTLDSYGIS | VIYSDGRRTFYGDSVK | GRAAGTFVV | no signal | 0/6 |
| 64 | GFTLNSYGIS | VIYSDGQRTFYGDSVK | GRAAGAWDS | no signal | 0/6 |

Picked from the list: the 5 lowest averages where every replicate gave a value.

| CDR-H1 | CDR-H2 | CDR-H3 | apparent Kd | detected |
|---|---|---|---|---|
| GFNLDEYGIS | VIYADGRRTFYADSVK | GENAGTFDM | 140 pM | 6/6 |
| GFDLNEYGIS | VIYADGMRTAYANDVK | GEVAGTFDI | 190 pM | 6/6 |
| GFDLNEYGIS | VIYADGRRTFYTDSVK | GTAAGTFDV | 220 pM | 6/6 |
| GFDLNEYGIS | VIYADGMRTAYANDVK | GNVAGTFDL | 260 pM | 6/6 |
| GFDLDEYGIS | VIYADGVRTAYIDSVK | GNQAGTFDV | 260 pM | 6/6 |

Background: pairings of all heavy chain designs with three empty control strains gave a value in 1% of cases (median 120 nM, 5th percentile 7.0 nM). Values in that range, when seen in few replicates, are hard to tell from nonspecific mating.
A sequence measured in both rounds can read differently, since the two assays cover different ranges.
The authors averaged sequences with at least three values out of six and counted those with two or fewer as poor binders.